Apparent affinities of Ab-14 variants for a coronavirus HR2 peptide

Reference: Engelhart et al. 2022, doi:10.1038/s41597-022-01779-4. File: FLAb, binding data.

All variants were tested on one target, the spike HR2 peptide PDVDLGDISGINAS (SARS-CoV-2).

Ab-14 is the parent antibody, in scFv form: VH, then a (GGGGS)3 linker, then VL. The light chain is unchanged in all variants.
VH: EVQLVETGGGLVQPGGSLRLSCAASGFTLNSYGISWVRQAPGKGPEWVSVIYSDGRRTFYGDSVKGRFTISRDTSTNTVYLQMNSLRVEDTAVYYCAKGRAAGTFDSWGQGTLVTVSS
VL: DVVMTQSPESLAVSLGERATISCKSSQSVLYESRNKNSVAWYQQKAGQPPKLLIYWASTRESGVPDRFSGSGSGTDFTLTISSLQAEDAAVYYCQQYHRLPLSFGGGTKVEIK

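Phage display of a naive human antibody library on the peptide gave the parent. Variants in AAYL49 differ from the parent at up to three CDR positions; double and triple changes were sampled at random. Affinity was read by AlphaSeq, a pooled yeast mating assay with surface-displayed partners. Mating (16 h, 30 °C) was followed by selection of diploids and sequencing of their barcodes. Read counts were normalised to the haploid input and turned into Kd by a linear fit to BCL2-family pairs of known affinity, for each replicate. The assay was run in three technical replicates.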

Positions count from residue 1 of the parent VH; Y32R puts R in place of Y.
Values are log10 of the apparent Kd in nM; lower means stronger binding.
Averages over replicates are reported, and they cover detected replicates only.
An entry "nd" has no value in the source: the pair was not observed among the diploids in any replicate. This suggests poor binding but is not conclusive.

changes	log10 Kd (nM), mean	detected
Y32R/T58R/A102V	nd	0/3
V50E/Y60L/A101N	5.63	1/3
T28C/A102M/T104N	nd	0/3
G26T/R57K/F59C	3.44	1/3
I34Y/Y52D/R56D	nd	0/3
G55I/D62M/F105G	nd	0/3
T28V/T58L/S107F	4.08	3/3
N30W/Y52A/A101R	nd	0/3
N30T/S63A	1.03	3/3
Y60T/R100L/F105Y	3.35	1/3
N30C/G55H/G99F	nd	0/3
I51D/T58N/A101H	nd	0/3
R57Y/F59H	nd	0/3
F27D/T28G	2.49	3/3
S35N/I51R/T104G	nd	0/3
I51N/T58H	4.83	1/3
T28L/L29V/S107W	3.03	3/3
S53N/G55S/V64L	nd	0/3
S31E/I51N/K65M	nd	0/3
S35A/S63A	nd	0/3
T28Y/S63G/S107M	2.48	2/3
R56W/S107G	2.60	3/3
S53L/R56C/T104Y	nd	0/3
G33W/D62E/V64P	nd	0/3
G55F/G99I/G103Y	nd	0/3
N30D/S31C/G61C	1.80	3/3
K65S/T104I/S107H	4.71	1/3
L29A/Y60W/G103A	3.87	1/3
Y32S/K65E/A101H	4.07	2/3
S31K/A102H	2.11	3/3
F27K/R57T/D62V	nd	0/3
S35N/Y60A/D106P	nd	0/3
F27E/F59S/R100F	nd	0/3
I51M/D62A/T104P	nd	0/3
N30W/I34L/D62F	4.32	1/3
G33Y/R57H	3.11	1/3
L29D/S31I/G55H	nd	0/3
F27V/G99Y/D106P	3.96	1/3
F27Y/F105R	3.69	1/3
F27A/S35M/T104G	3.43	1/3
S31V/I34A/D62P	3.20	1/3
S31M/I51C/K65V	4.64	3/3
F27P/N30H/Y52H	5.35	2/3
R57C/S63Q	nd	0/3
T28D/G55Q/R57H	3.36	3/3
G26W/R100Y/F105Q	nd	0/3
V50M/D54P/T58F	nd	0/3
N30P/S53P/T104S	4.16	2/3
F27K/S31N/I51S	3.25	1/3
I51Q/G61E/A102P	nd	0/3
I34M/T58D/D62E	nd	0/3
D54Y/R57L/G61V	nd	0/3
Y32K/Y60N/D106T	nd	0/3
S35A/D62A/T104S	nd	0/3
Y52W/G103T	5.92	1/3
S53G/G55M/R57S	5.21	1/3
R57K/K65C/G99A	4.57	1/3
S63E/V64W/A101V	3.35	3/3
R56Q/D106Q/S107A	3.80	1/3
Y32N/Y52V/F59K	nd	0/3
S35V/S63M/G99A	nd	0/3
S31V/Y60V/A101T	1.37	3/3
F27Y/D62I/G103W	4.82	1/3
G33P/Y52A/A101Y	nd	0/3
N30W/S35P/D54Y	nd	0/3

The closing 5 entries, repeated:

{"changes": "S35V/S63M/G99A", "log10 Kd (nM), mean": "nd", "detected": "0/3"}
{"changes": "S31V/Y60V/A101T", "log10 Kd (nM), mean": "1.37", "detected": "3/3"}
{"changes": "F27Y/D62I/G103W", "log10 Kd (nM), mean": "4.82", "detected": "1/3"}
{"changes": "G33P/Y52A/A101Y", "log10 Kd (nM), mean": "nd", "detected": "0/3"}
{"changes": "N30W/S35P/D54Y", "log10 Kd (nM), mean": "nd", "detected": "0/3"}

As a blank, each scFv also met three strains without target: over library AAYL49, 15% of these pairings were detected, typically at 4.06 and seldom below 2.83.